Test results as given in patent publication US9023398B2, “Method for improving the aqueous solubility of poorly-soluble substances” (Kabushiki Kaisha Sangi, priority 2009, dated 2015).
Blank lines part the entries; values can stand above or below the molecule they belong to.

Legend:
[1] = Dissolution test of poorly-soluble substances using 2nd fluid for disintegration test (pH 6.8) of the Japanese Pharmacopoeia; assay type: physicochemical
[2] = Dissolution test of poorly-soluble substances using distilled water
[3] = 2nd fluid for disintegration test, elution time 60 min
[4] = 2nd fluid for disintegration test, elution time 30 min
[5] = 2nd fluid for disintegration test, elution time 180 min

SMILES: CC1(C)[C@@H](O[C@H]2O[C@H](C(=O)O)[C@@H](O)[C@H](O)[C@H]2O[C@@H]2O[C@H](C(=O)O)[C@@H](O)[C@H](O)[C@H]2O)CC[C@]2(C)[C@H]3C(=O)C=C4[C@@H]5C[C@@](C)(C(=O)O)CC[C@]5(C)CC[C@@]4(C)[C@]3(C)CC[C@@H]12 [Comparative Example 16, Ammonium Glycyrrhizinate]
Dissolved amount [1, 4]: 9673.9 µg/mL | Dissolved amount [1, 3]: 10149.0 µg/mL | Dissolved amount [1, 5]: 10469.7 µg/mL | Dissolved amount ([1]; 2nd fluid for disintegration test, elution time 360 min): 10534.3 µg/mL | Dissolved amount ([2]; elution time 10 min): 5945.2 µg/mL

SMILES: NC(N)=Nc1nc(CSCCC(N)=NS(N)(=O)=O)cs1 [Comparative Example 17, Famotidine]
Dissolved amount [1, 5]: 2509.7 µg/mL

SMILES: CNC[C@H](O)c1ccc(O)c(O)c1 [compound 29, Epinephrine]
Dissolved amount [1]: 2107.4 µg/mL

SMILES: O=C(CCCN1CCC(O)(c2ccc(Cl)cc2)CC1)c1ccc(F)cc1 [compound 46, Haloperidol]
Dissolved amount ([1]; Haloperidol, 2nd fluid for disintegration test, elution time 30 min): 45.2 µg/mL | Dissolved amount ([2]; Haloperidol, elution time 120 min): 12.8 µg/mL

Next, values leading:

Dissolved amount [1, 3]: 6289.8 µg/mL | Dissolved amount ([2]; elution time 30 min): 3084.0 µg/mL
SMILES: CC(=O)Oc1ccccc1C(=O)O [Comparative Example 1-3, Aspirin]

Dissolved amount ([2]; elution time 30 min): 23.7 µg/mL | Dissolved amount ([2]; elution time 120 min): 23.7 µg/mL
SMILES: O=C1NC(=O)C(c2ccccc2)(c2ccccc2)N1 [compound 21, Phenyloin]

Dissolved amount ([1]; 2nd fluid for disintegration test, elution time 10 min): 1662.3 µg/mL | Dissolved amount [1, 4]: 1681.5 µg/mL
SMILES: CC(=O)Nc1nnc(S(N)(=O)=O)s1 [compound 23, Acetazolamide]

Dissolved amount ([2]; Prednisolone, elution time 3 min): 356.0 µg/mL
SMILES: C[C@]12C=CC(=O)C=C1CC[C@@H]1[C@@H]2[C@@H](O)C[C@@]2(C)[C@H]1CC[C@]2(O)C(=O)CO [compound 41, Prednisolone]

Dissolved amount ([1]; Pindolol, 2nd fluid for disintegration test, elution time 360 min): 3387.5 µg/mL
SMILES: CC(C)NCC(O)COc1cccc2[nH]ccc12 (centres unmarked) [compound 42, Pindolol]
